Target: human isoQC (Homo sapiens, UniProt Q9NXS2, C369A/I73N)
Test: Inhibitor assay, human isoQC (Ki/IC50, competitive inhibition)

Chains of the proteins cited; added tags and fusions are not shown. Residues count along the entry.
UniProt Q9NXS2, 48-382 I73N/C369A: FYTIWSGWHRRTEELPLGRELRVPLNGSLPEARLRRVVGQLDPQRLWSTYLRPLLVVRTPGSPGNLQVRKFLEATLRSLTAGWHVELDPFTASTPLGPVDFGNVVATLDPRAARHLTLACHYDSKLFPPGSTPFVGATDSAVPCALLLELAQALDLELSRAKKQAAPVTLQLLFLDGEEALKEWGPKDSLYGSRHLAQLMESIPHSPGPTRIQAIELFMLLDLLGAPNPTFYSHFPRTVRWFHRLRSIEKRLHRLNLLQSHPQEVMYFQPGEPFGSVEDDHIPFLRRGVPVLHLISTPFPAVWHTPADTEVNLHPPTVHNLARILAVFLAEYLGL

Ki: 235 ± 13 µM
SMILES: c1c[nH]cn1 [Imidazole]

Source: patent US8889709B2, “Use of isoQC inhibitors in the treatment and prevention of inflammatory diseases or conditions” (Probiodrug AG, priority 2006, dated 2014)
